In assay [1] the target is untagged AT1R (AT1R-WT) (human) (UniProt P30556).
In assay [2] the target is AT1R-RlucII (angiotensin II type 1 receptor fused to Renilla luciferase) (human) (UniProt P30556).
Assay [3] has the same target. The source holds these as a separate data set.

For angiotensin II (AngII) (peptide), in assay [1], the Log EC50 of AngII, IP1 production in cells expressing AT1R-WT, control (log (concentration unit not given)) is -8.15 and the Log EC50 of AngII, IP1 production in cells expressing AT1R-WT, with 10 µM LVV–hemorphin-7 (log (concentration unit not given)) was -9.55. For the same substance, in assay [2], the Log EC50 of AngII, BRET between AT1R-Rluc and Venus-Gαq, cells pretreated with 10 µM LVV–hemorphin-7 (log (concentration unit not given)) was -8.78; the Log EC50 of AngII, BRET between AT1R-Rluc and Venus-Gαq, control (log (concentration unit not given)) was -7.68; the Log EC50 of AngII, BRET between AT1R-Rluc and yPET–β-arrestin 2, cells pretreated with 10 µM LVV–hemorphin-7 (log (concentration unit not given)) was -8.91; the Log EC50 of AngII, BRET between AT1R-Rluc and yPET–β-arrestin 2, control (log (concentration unit not given)) was -7.75. Moreover, in assay [2], the Log EC50 of AngII, IP1 production in cells coexpressing AT1R-Rluc and Venus-Gαq, control (log (concentration unit not given)) was -7.57; the Log EC50 of AngII, IP1 production in cells coexpressing AT1R-Rluc and Venus-Gαq, pretreated with 10 µM LVV–hemorphin-7 (log (concentration unit not given)) was -8.93. The ERK1/2 phosphorylation (folds over untreated cells), cells coexpressing AT1R-Rluc and Venus-Gαq, 10 nM AngII in assay [3] worked out at 3.7 folds.

The record behind these values is PMC6823245, “Positive Modulation of Angiotensin II Type 1 Receptor–Mediated Signaling by LVV–Hemorphin-7” (Frontiers in Pharmacology, 2019).
